According to patent US20240024337A1, “INTERACTION OF SARS-COV-2 PROTEINS WITH MOLECULAR AND […] […] HOST CELLS AND FORMULATIONS TO TREAT COVID-19” (AKSEERA PHARMA CORP., priority 2020, published 2024):

Tested on: HEK293 cells transfected with control plasmid (pCMV) or plasmids expressing ORF8, ORF10 or M protein
Experiment: Apoptosis assay: early (pSIVA) and late (propidium iodide) apoptosis index, Kinetic Apoptosis Kit
Conditions: 2 μM, 24 h, vs vehicle only

In the case of CCCCCc1cc(O)c2c(c1)OC(C)(C)c1ccc(C)cc1-2 [cannabinol, Cannabinol], the “Early Apoptosis Index” value was “this augmentation is significant”.
